Assay results taken from PubChem BioAssay AID602210 (Sanford-Burnham Center for Chemical Genomics, 2012).
Activity calls are given as the source filed them. The rule behind the calls is not given here.

Experiment: H9c2 cardiomyoblast viability modulators under 2-DG – cell-based, ATPlite luminescence, rat, set 2, myocardial damage modulator project, dose response (AID 602210)
Details: H9c2 rat cardiomyoblasts, 2-deoxyglucose-induced death, 2 h

## NC(=O)c1ccsc1NC(=O)c1ccc([N+](=O)[O-])o1
  IC50: inactive: 10.7 µM
